Two molecules from ChEMBL document CHEMBL1667811, “Influence of pKa on the biotransformation of indene H1-antihistamines by CYP2D6” (Bioorg Med Chem Lett, 2011) can be followed below.

Chains of the proteins cited; added tags and fusions are not shown.
UniProt P35367, whole entry: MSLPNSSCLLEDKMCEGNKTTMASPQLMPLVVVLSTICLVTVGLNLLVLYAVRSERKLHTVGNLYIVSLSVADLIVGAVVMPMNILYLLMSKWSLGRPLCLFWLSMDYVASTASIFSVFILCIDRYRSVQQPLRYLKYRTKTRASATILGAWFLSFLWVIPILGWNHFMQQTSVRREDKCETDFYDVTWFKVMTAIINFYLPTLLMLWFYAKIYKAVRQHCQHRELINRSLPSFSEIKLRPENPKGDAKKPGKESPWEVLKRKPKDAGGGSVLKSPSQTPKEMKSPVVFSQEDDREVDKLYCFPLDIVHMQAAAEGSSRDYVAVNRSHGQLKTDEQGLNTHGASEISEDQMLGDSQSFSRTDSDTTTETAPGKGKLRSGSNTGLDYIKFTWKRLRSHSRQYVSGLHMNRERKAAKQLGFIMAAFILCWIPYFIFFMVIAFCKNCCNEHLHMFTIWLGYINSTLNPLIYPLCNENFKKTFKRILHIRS

The test system of one series is Rattus norvegicus. Briefly: Intrinsic clearance in rat 1 mg/kg, iv in presence of 3 uM quinidine. The note with it: in vivo. Type of series: ADME, organism-based. Further details: dose 1 mg/kg, route intravenous.
The subject of series [1] is Homo sapiens (human liver microsomes). In words: Intrinsic clearance in human liver microsomes. (In general: Liver microsomes are vesicles of endoplasmic reticulum, rich in cytochrome P450 enzymes.)
The target of another series is Histamine H1 receptor (Homo sapiens, UniProt P35367). In words: Binding affinity to histamine H1 receptor.

Consider `C[C@H](C1=C(CCN(C)Cc2ncc[nH]2)Cc2ccccc21)c1cnccn1`, for which the clearance with Rattus norvegicus was determined as 403 mL/min/kg. In series [1], this molecule came in with a CL of 411.7 mL/min/kg.

As a reminder, the Ki is a measure of affinity in units of concentration, obtained from inhibition or displacement. On Histamine H1 receptor, `CN(CCF)CCC1=C(Cc2cnccn2)c2ccccc2C1` registered a Ki of 24 nM.
